Activity calls are given as the source filed them.
Tests used:
[1] = biological target: T1, Histone-lysine N-methyltransferase 2A/WDR5 (Homo sapiens) (UniProt P61964+Q03164); assay: Inhibition of MLL1/WDR5 protein-protein interaction in human MV4-11 cells assessed as decrease in H3K4me1 level incubated for 48 hrs by Western blot analysis; assay type: cell-based
[2] = biological target: T1, Histone-lysine N-methyltransferase 2A/WDR5 (Homo sapiens); assay: Inhibition of MLL1/WDR5 protein-protein interaction in human MV4-11 cells assessed as decrease in H3K4me2 level incubated for 48 hrs by Western blot analysis; assay type: cell-based
[3] = biological target: T1, Histone-lysine N-methyltransferase 2A/WDR5 (Homo sapiens); assay: Inhibition of MLL1/WDR5 protein-protein interaction in human MV4-11 cells assessed as decrease in H3K4me3 level incubated for 48 hrs by Western blot analysis; assay type: cell-based
MV4-11 [4] = assay: Downregulation of SULT1A3 mRNA expression in human MV4-11 cells by RT-PCR analysis; assay type: functional, cell-based
MV4-11 [5] = assay: Antitumor activity against human MV4-11 cells xenografted in mouse assessed as decrease in H3K4me level at 10 to 30 mg/kg, ip administered daily for 17 days by Western blot analysis; assay type: functional, organism-based; details: dose 10-30 mg/kg, time 17.0 day
MV4-11 [6] = assay: Antitumor activity against human MV4-11 cells xenografted in ip dosed mouse assessed as increase in AC-H3 level administered daily for 17 days by Western blot analysis; assay type: functional, organism-based; details: dose 10-30 mg/kg, time 17.0 day
MV4-11 [7] = assay: Antitumor activity against human MV4-11 cells xenografted in ip dosed mouse assessed as increase in AC-H4 level administered daily for 17 days by Western blot analysis; assay type: functional, organism-based; details: dose 10-30 mg/kg, time 17.0 day
MV4-11 [8] = assay: Antitumor activity against human MV4-11 cells xenografted in mouse assessed as increase in number of TUNEL-positive cells in tumor at 10 to 30 mg/kg, ip administered daily for 17 days by Western blot analysis; assay type: functional, organism-based; details: dose 10-30 mg/kg, time 17.0 day

Sequences of proteins named here, by UniProt entry; tags and fusion partners are left off.
UniProt Q03164, whole entry, looked up: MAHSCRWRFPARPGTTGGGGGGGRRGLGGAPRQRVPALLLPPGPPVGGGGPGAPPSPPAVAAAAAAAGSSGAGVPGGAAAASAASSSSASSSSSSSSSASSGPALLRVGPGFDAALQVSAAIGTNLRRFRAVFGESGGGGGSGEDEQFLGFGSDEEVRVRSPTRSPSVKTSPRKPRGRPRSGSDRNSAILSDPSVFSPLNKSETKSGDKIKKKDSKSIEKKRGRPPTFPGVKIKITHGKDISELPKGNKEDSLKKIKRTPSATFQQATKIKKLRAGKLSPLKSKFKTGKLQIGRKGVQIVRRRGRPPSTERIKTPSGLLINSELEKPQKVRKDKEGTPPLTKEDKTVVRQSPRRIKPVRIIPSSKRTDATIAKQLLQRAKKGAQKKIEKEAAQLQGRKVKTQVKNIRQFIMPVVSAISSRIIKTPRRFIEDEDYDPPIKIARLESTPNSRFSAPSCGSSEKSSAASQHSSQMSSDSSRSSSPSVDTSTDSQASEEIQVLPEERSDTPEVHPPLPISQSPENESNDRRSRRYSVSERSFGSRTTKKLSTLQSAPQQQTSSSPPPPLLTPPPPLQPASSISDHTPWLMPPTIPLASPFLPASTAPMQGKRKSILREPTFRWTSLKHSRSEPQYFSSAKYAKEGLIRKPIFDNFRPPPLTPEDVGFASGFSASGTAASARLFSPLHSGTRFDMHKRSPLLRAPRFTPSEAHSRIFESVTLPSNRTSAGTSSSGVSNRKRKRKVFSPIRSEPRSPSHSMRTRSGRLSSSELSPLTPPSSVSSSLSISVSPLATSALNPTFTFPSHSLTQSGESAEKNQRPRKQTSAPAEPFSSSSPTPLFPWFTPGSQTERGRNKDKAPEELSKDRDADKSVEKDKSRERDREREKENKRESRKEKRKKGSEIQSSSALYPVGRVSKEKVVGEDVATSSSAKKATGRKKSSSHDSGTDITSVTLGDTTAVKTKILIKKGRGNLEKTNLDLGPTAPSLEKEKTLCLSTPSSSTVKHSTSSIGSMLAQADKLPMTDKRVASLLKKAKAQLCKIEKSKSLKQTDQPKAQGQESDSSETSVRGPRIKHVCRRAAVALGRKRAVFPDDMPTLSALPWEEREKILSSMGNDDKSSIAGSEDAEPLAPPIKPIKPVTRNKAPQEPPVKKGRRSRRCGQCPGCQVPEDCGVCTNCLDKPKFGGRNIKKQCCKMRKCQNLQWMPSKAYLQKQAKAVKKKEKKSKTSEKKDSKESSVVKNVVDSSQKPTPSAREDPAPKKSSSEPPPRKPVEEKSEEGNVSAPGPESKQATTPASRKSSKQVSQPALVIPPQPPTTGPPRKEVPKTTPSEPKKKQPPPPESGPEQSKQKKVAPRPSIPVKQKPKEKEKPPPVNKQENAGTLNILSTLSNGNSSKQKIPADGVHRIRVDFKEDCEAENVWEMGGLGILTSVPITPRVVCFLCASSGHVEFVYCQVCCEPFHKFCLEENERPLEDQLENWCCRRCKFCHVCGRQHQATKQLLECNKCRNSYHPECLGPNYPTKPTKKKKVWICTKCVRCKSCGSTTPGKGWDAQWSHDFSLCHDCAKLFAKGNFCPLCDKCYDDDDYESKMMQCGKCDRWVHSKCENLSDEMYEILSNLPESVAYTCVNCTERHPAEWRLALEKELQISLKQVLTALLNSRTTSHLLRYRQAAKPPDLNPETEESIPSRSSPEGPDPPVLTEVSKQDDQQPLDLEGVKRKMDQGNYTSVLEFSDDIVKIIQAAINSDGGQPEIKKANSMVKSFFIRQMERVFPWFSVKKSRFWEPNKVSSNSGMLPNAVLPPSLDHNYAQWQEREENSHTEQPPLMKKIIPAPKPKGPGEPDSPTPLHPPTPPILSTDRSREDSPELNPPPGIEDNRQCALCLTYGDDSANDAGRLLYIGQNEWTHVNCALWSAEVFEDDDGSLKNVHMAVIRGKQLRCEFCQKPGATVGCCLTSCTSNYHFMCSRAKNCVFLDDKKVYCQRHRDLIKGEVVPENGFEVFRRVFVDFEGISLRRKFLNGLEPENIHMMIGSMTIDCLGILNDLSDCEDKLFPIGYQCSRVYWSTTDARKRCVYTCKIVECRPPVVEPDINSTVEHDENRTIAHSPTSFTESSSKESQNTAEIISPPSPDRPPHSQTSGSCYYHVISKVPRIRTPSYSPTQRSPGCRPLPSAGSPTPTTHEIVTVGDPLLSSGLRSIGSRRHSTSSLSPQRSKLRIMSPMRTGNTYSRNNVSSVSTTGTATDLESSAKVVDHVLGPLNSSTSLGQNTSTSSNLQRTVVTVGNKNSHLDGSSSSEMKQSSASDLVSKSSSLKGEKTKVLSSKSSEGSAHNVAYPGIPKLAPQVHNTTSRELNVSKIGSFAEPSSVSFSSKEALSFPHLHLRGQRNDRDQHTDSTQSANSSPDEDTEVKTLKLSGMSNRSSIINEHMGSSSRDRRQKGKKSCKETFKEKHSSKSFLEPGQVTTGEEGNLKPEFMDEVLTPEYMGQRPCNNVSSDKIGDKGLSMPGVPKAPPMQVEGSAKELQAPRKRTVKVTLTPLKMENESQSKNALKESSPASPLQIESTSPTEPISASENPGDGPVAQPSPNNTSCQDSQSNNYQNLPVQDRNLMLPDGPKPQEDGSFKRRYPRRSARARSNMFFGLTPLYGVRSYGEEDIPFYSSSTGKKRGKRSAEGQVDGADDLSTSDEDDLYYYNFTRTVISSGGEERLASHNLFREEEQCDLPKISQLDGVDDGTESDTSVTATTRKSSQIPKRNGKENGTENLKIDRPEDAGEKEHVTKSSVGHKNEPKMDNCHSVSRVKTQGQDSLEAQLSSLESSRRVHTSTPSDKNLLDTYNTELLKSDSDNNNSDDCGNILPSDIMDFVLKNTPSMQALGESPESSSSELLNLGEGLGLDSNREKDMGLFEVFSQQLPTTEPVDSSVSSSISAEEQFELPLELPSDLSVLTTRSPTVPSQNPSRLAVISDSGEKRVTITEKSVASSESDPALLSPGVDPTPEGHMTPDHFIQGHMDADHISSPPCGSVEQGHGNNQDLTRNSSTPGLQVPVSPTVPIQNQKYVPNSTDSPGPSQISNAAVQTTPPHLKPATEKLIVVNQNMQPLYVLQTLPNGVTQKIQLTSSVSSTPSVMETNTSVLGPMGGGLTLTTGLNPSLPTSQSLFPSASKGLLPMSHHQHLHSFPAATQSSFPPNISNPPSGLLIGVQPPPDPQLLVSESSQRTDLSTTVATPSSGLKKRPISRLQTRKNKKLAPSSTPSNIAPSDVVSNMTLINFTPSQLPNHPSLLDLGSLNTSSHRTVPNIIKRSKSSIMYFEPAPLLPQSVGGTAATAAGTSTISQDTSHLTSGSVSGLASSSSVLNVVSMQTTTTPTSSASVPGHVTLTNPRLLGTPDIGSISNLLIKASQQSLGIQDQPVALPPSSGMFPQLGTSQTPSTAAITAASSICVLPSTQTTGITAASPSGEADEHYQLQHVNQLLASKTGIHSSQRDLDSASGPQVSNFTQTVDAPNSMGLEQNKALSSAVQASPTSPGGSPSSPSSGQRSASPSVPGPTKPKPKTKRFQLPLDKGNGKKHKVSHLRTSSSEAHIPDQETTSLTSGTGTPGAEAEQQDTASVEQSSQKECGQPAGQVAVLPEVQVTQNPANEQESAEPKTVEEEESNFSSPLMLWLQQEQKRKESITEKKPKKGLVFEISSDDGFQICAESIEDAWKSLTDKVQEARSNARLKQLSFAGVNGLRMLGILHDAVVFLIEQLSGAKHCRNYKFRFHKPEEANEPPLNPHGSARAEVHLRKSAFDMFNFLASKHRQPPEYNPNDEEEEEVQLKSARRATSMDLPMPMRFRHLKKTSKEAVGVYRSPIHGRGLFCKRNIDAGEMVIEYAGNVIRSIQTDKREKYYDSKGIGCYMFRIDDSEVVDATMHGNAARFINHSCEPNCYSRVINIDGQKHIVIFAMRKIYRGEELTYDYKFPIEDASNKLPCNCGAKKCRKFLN

Cc1c(F)c(N)cc(C(=O)Nc2cc(-c3ccc(C(=O)NCc4ccc(/C=C/C(=O)NO)cc4)cc3)ccc2N2CCN(C)CC2)c1Cl
active: inhibition [1] | inhibition [2] | inhibition [3] | Activity (MV4-11 [4]) | Activity (MV4-11 [5]) | Activity (MV4-11 [6]) Dose-dependent-effect | Activity (MV4-11 [7]) Dose-dependent-effect | Activity (MV4-11 [8])

Source: ChEMBL document CHEMBL6096706, “Discovery of WDR5-MLL1 and HDAC Dual-Target Inhibitors for the Treatment of Acute Myeloid Leukemia” (J Med Chem, 2025)
